The subject of data set [1] is freshly isolated hepatocytes (testosterone hydroxylation). Particulars: freshly cultured hepatocytes, 24 hours in rifampicin.
In data set [2] the test system is human hepatocytes cryopreserved according to the invention (testosterone hydroxylation). The conditions noted are these: cryopreserved and recultured hepatocytes, 24 hours in rifampicin.

Take `CO[C@H]1/C=C/O[C@@]2(C)Oc3c(C)c(O)c4c(O)c(c(/C=N/N5CCN(C)CC5)c(O)c4c3C2=O)NC(=O)/C(C)=C\C=C\[C@H](C)[C@H](O)[C@@H](C)[C@@H](O)[C@@H](C)[C@H](OC(C)=O)[C@@H]1C` [rifampicin]: the “induction of formation of 6α-hydroxytestosterone (6α-OHT)” value in data set [1] and in data set [2] was “unable to induce” each time.

The record behind these values is patent US20080280357A1, “Cryopreservation of Hepatocytes” (priority 2005, published 2008).
